Measurements published in patent US20250270584A1, “Gene editing to provide insect resistance in crops” (The Regents of the University of California, priority 2022, published 2025).

Tests used:
[1] = biological target: 6His-CaM7 (Arabidopsis thaliana), P59220; experiment: ITC at 25 C, peptide titrated into 6His-CaM7, 1 mM Ca2+
[2] = biological target: 6His-CaM7 (Arabidopsis thaliana), P59220; experiment: ITC at 25 C, peptide titrated into 6His-CaM7, Ca2+ chelated with 2 mM EGTA
[3] = biological target: 6His-CaM7 (Arabidopsis thaliana), P59220; experiment: ITC at 25 C, peptide titrated into 6His-CaM7

| Binder | Kd [1] [µM] | Kd [2] [µM] | Kd [3] [µM] |
| --- | --- | --- | --- |
| DQQQNHDSSSMRSTRLQRFLSL (modifications not checked) [CBD peptide] | 7.58 | 279 | – |
| DQQQNHDSTRLQRFLSL (modifications not checked) [mutated CBD peptide] | – | – | 71.3 |
